Data from patent US7125872B2, “β-sheet mimetics and use thereof as inhibitors of biologically active peptides or proteins” (Myriad Genetics, Inc., priority 1995, dated 2006).

Amino acid sequences for entries named in this document (tags omitted). Residues count along the entry.
UniProt P00742, 41-179 limits assumed: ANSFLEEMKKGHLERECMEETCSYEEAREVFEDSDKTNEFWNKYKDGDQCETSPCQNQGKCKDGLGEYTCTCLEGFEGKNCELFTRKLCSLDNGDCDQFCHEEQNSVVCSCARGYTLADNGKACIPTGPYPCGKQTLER
UniProt P00742, 235-488 limits assumed: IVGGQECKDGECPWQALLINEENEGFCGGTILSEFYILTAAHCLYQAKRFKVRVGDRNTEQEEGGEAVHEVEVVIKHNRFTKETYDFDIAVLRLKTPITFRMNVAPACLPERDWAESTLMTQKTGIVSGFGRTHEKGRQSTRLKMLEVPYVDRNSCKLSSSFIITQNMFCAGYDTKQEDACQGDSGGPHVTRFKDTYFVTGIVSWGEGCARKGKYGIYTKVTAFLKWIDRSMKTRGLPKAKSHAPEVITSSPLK

Target: Factor X (Homo sapiens, UniProt P00742)
Assay: Factor X inhibition assay, Ki, enzyme source not stated
Format: biochemical
Details: read-out: Ki Factor X; not marked bovine plasma

Row | SMILES | Ki [µM]
1 | COC(=O)c1cnc(C(=O)[C@H](CCCNC(=N)N)NC(=O)[C@@H]2CCN3CC[C@@](N)(Cc4ccccc4)C(=O)N23)[nH]1 | 38
2 | N=C(N)NC(=O)NC[C@H](NC(=O)[C@@H]1CCN2CC[C@@](N)(Cc3ccccc3)C(=O)N12)C(=O)c1nc2ccccc2s1 | 57
